Data on four substances can be found in patent US12331121B2, “Efflux pump-cancer antigen multi-specific antibodies and compositions, reagents, kits and methods related thereto” (William Robert Arathoon Living Trust Dated August 29, 2016, priority 2019, dated 2025).

The target in data set [1] is EGFR (Homo sapiens, UniProt P00533). In words: EGFR binding by ELISA. The following applies: for binding to EGFR (FIG. 31 summary): measured by ELISA or FACS.
Data set [2] deals with MDR1 (293T cells overexpressing MDR1) (Homo sapiens, UniProt P08183).

Consider “MRK16 DD HC::cetuximab KK HC::MRK16 LC: anti-MDR1 anti-EGFR bispecific antibody version 3”, for which, in data set [1], the “binding to EGFR (FIG. 31 summary)” value is given as “binding to EGFR with a lower affinity”. Besides, the “binding to MDR1 by FACS” value in data set [2] was “binds to both MDR-1 and EGFR”.
Turning to “15D3 DD HC::cetuximab KK HC::MRK16 LC: anti-MDR1 anti-EGFR bispecific antibody”, in data set [1], the “binding to EGFR by ELISA” value is recorded as “retained binding”. The “binding to MDR1 by FACS” value in data set [2] is “retained binding”.
As to “MRK16 DD HC::cetuximab KK HC::15D3 LC: anti-MDR1 anti-EGFR bispecific antibody version 2”, in data set [1], the “binding to EGFR by ELISA” value was “retained binding”. Moreover, in data set [2], the “binding to MDR1 by FACS” value was “retained binding”.
Consider “15D3 DD HC::cetuximab KK HC::15D3 LC: anti-MDR1 anti-EGFR bispecific antibody version 3”, for which, in data set [1], the “binding to EGFR (FIG. 31 summary)” value is “binds to both MDR-1 and EGFR”. Moreover, the “binding to MDR1 by FACS” value in data set [2] is “binds to both MDR-1 and EGFR”.
